Values quoted from earlier work as cited in US20220105051A1, “COMPOUNDS FOR INCREASING MHC-I EXPRESSION AND MODULATING HISTONE DEACETYLASE ACTIVITY” (Cava Healthcare Inc., priority 2019, published 2022).

Sequences of proteins named here, by UniProt entry; tags and fusion partners are left off. A change or cut given only in a name is not applied to a line headed by its entry.
UniProt Q9UKV0: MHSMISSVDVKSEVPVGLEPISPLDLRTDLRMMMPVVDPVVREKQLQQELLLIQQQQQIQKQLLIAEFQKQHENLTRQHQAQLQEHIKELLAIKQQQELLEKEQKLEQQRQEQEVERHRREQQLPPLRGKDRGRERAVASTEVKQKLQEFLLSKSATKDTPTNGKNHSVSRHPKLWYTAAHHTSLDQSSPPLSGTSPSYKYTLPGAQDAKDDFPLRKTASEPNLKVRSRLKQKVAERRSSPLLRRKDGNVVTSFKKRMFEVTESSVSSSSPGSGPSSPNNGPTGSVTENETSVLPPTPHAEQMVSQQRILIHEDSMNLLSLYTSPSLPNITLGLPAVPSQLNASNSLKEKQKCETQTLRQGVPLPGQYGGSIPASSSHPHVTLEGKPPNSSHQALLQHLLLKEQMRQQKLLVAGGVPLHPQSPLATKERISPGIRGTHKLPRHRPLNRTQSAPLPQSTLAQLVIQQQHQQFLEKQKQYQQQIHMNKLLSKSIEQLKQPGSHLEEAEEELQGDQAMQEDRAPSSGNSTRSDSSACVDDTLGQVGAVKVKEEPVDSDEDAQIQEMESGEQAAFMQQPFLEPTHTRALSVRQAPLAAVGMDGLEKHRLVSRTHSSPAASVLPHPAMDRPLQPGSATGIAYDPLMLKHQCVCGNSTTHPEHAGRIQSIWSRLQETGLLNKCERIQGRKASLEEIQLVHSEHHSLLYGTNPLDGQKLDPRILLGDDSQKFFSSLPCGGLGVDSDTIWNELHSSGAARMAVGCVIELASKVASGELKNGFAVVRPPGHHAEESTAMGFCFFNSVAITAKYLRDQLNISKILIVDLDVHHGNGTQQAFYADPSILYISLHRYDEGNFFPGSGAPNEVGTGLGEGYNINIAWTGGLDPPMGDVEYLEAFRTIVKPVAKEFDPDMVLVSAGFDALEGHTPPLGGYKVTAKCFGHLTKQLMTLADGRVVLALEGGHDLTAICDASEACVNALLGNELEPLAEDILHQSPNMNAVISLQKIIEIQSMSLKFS

Tests used:
HDAC6 = target: T1, HDAC6 (Homo sapiens, UniProt Q9UBN7); conditions: known; cited from earlier work
T1 construct: purchased BPS Biosciences
T1 sequence (Q9UBN7 1-1215): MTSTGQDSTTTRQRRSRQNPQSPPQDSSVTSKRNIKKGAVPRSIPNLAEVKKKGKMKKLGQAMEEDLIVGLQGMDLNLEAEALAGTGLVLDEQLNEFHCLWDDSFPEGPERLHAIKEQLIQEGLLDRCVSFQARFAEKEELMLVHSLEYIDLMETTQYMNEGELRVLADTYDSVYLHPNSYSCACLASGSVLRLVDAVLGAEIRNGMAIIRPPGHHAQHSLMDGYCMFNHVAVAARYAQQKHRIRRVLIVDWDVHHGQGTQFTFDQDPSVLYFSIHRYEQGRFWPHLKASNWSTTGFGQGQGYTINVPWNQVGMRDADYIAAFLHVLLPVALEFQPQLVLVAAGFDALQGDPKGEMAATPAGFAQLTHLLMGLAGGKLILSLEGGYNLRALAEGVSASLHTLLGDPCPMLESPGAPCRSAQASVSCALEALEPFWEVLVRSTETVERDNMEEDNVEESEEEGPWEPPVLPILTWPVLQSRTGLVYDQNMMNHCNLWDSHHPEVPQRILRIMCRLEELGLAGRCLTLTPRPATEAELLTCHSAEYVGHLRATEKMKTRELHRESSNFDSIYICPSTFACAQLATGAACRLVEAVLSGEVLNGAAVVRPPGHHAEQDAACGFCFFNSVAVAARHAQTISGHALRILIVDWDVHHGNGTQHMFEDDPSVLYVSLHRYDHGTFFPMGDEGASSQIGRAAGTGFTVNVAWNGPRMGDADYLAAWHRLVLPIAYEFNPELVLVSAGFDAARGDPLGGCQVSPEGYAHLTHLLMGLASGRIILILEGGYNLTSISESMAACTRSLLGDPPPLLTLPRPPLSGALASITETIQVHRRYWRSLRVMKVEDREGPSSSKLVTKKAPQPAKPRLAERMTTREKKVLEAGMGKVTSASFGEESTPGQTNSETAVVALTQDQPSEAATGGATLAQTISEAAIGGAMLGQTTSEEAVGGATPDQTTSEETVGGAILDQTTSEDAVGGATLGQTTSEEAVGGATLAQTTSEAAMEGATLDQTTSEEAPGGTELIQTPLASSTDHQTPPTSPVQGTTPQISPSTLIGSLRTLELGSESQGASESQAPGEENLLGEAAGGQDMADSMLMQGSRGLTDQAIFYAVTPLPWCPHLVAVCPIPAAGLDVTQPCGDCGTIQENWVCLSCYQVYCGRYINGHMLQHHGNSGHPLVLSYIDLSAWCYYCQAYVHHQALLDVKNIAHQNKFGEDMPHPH

HDAC9 = target: T2, HDAC9 (Homo sapiens, UniProt Q9UKV0); conditions: known; cited from earlier work
T2 construct: purchased BPS Biosciences

CC(/C=C/C(=O)NO)=C\[C@@H](C)C(=O)c1ccc(N(C)C)cc1 [TSA, Trichostatin A, reference compound]
effect on HDAC6 (HDAC6): limited effect | effect on HDAC9 (HDAC9): limited effect
